Laboratory results from paper PMC12102759 (Protein Science : A Publication of the Protein Society, 2025).

test system: AP2M1 MU; assay type: binding, human

Going from VSDIDYVPLKSATAIT S2Y (VYDIDYVPLKSATAIT) to “VSDIDYVPLKSATAIT S11A (VSDIDYVPLKAATAIT)”, the “PSSM value of the substitution (DMS by phage display)” value (“PSSM value of the substitution” for short) falls from 0.001913 to 0.001589.

“VSDIDYVPLKSATAIT S11D (VSDIDYVPLKDATAIT)” and “VSDIDYVPLKSATAIT S11E (VSDIDYVPLKEATAIT)” are the same in “PSSM value of the substitution” value: 0.00113 for the first, 0.00113 for the second.

Compared with “VSDIDYVPLKSATAIT S11F (VSDIDYVPLKFATAIT)”, “VSDIDYVPLKSATAIT S11G (VSDIDYVPLKGATAIT)” is lower in “PSSM value of the substitution” value: 0.00549 for the first, 0 for the second.

“VSDIDYVPLKSATAIT S11H (VSDIDYVPLKHATAIT)” and “VSDIDYVPLKSATAIT S11I (VSDIDYVPLKIATAIT)” are the same in “PSSM value of the substitution” value: 0 for the first, 0 for the second.

First: VSDIDYVPLKSATAIT S11K (VSDIDYVPLKKATAIT)
Second: VSDIDYVPLKSATAIT S11L (VSDIDYVPLKLATAIT)
The “PSSM value of the substitution” value of the first is higher: 0.03863 for the first, 0.002329 for the second.

“VSDIDYVPLKSATAIT S11M (VSDIDYVPLKMATAIT)” and “VSDIDYVPLKSATAIT S11N (VSDIDYVPLKNATAIT)” are the same in “PSSM value of the substitution” value: 0 for the first, 0 for the second.

First: VSDIDYVPLKSATAIT S11P (VSDIDYVPLKPATAIT)
Second: VSDIDYVPLKSATAIT S11Q (VSDIDYVPLKQATAIT)
The “PSSM value of the substitution” value of the first is lower: 0.01447 for the first, 0.9003 for the second.

Going from “VSDIDYVPLKSATAIT S11R (VSDIDYVPLKRATAIT)” to VSDIDYVPLKSATAIT S11S, the “PSSM value of the substitution” value rises from 0 to 0.003106.

First: VSDIDYVPLKSATAIT S11T (VSDIDYVPLKTATAIT)
Second: VSDIDYVPLKSATAIT S11V (VSDIDYVPLKVATAIT)
The “PSSM value of the substitution” value of the first is lower: 0 for the first, 0.0159 for the second.

Compared with “VSDIDYVPLKSATAIT S11W (VSDIDYVPLKWATAIT)”, “VSDIDYVPLKSATAIT S11Y (VSDIDYVPLKYATAIT)” is higher in “PSSM value of the substitution” value: 0.001786 for the first, 0.01416 for the second.

First: VSDIDYVPLKSATAIT T13A (VSDIDYVPLKSAAAIT)
Second: VSDIDYVPLKSATAIT T13D (VSDIDYVPLKSADAIT)
The “PSSM value of the substitution” value of the first is lower: 0.001387 for the first, 0.01469 for the second.

First: VSDIDYVPLKSATAIT T13E (VSDIDYVPLKSAEAIT)
Second: VSDIDYVPLKSATAIT T13F (VSDIDYVPLKSAFAIT)
The “PSSM value of the substitution” value of the first is lower: 0.0395 for the first, 0.2232 for the second.

Going from “VSDIDYVPLKSATAIT T13G (VSDIDYVPLKSAGAIT)” to “VSDIDYVPLKSATAIT T13H (VSDIDYVPLKSAHAIT)”, the “PSSM value of the substitution” value rises from 0.001097 to 0.02042.

First: VSDIDYVPLKSATAIT T13I (VSDIDYVPLKSAIAIT)
Second: VSDIDYVPLKSATAIT T13K (VSDIDYVPLKSAKAIT)
The “PSSM value of the substitution” value of the first is higher: 0.002859 for the first, 0 for the second.

First: VSDIDYVPLKSATAIT T13L (VSDIDYVPLKSALAIT)
Second: VSDIDYVPLKSATAIT T13M (VSDIDYVPLKSAMAIT)
The “PSSM value of the substitution” value of the first is lower: 0.00195 for the first, 0.0765 for the second.

First: VSDIDYVPLKSATAIT T13N (VSDIDYVPLKSANAIT)
Second: VSDIDYVPLKSATAIT T13P (VSDIDYVPLKSAPAIT)
The “PSSM value of the substitution” value of the first is lower: 0.0008055 for the first, 0.02594 for the second.

Compared with “VSDIDYVPLKSATAIT T13Q (VSDIDYVPLKSAQAIT)”, “VSDIDYVPLKSATAIT T13R (VSDIDYVPLKSARAIT)” is lower in “PSSM value of the substitution” value: 0.5233 for the first, 0.005583 for the second.

Going from “VSDIDYVPLKSATAIT T13S (VSDIDYVPLKSASAIT)” to VSDIDYVPLKSATAIT T13T, the “PSSM value of the substitution” value falls from 0.021 to 0.003813.

First: VSDIDYVPLKSATAIT T13V (VSDIDYVPLKSAVAIT)
Second: VSDIDYVPLKSATAIT T13W (VSDIDYVPLKSAWAIT)
The “PSSM value of the substitution” value of the first is higher: 0.03153 for the first, 0 for the second.

First: VSDIDYVPLKSATAIT T13Y (VSDIDYVPLKSAYAIT)
Second: VSDIDYVPLKSATAIT V1A (ASDIDYVPLKSATAIT)
The “PSSM value of the substitution” value of the first is higher: 0.006401 for the first, 0 for the second.

Going from VSDIDYVPLKSATAIT V1D (DSDIDYVPLKSATAIT) to VSDIDYVPLKSATAIT V1E (ESDIDYVPLKSATAIT), the “PSSM value of the substitution” value rises from 8.606e-5 to 0.01239.

Compared with VSDIDYVPLKSATAIT V1F (FSDIDYVPLKSATAIT), VSDIDYVPLKSATAIT V1G (GSDIDYVPLKSATAIT) is higher in “PSSM value of the substitution” value: 9.11e-5 for the first, 0.0001046 for the second.

Compared with VSDIDYVPLKSATAIT V1H (HSDIDYVPLKSATAIT), VSDIDYVPLKSATAIT V1I (ISDIDYVPLKSATAIT) is lower in “PSSM value of the substitution” value: 0.002131 for the first, 0 for the second.

Compared with VSDIDYVPLKSATAIT V1K (KSDIDYVPLKSATAIT), VSDIDYVPLKSATAIT V1L (LSDIDYVPLKSATAIT) is lower in “PSSM value of the substitution” value: 0.0003311 for the first, 0.0001768 for the second.

Going from VSDIDYVPLKSATAIT V1M (MSDIDYVPLKSATAIT) to VSDIDYVPLKSATAIT V1N (NSDIDYVPLKSATAIT), the “PSSM value of the substitution” value falls from 0.0003154 to 0.

First: VSDIDYVPLKSATAIT V1P (PSDIDYVPLKSATAIT)
Second: VSDIDYVPLKSATAIT V1Q (QSDIDYVPLKSATAIT)
The “PSSM value of the substitution” value of the first is higher: 0.003868 for the first, 0 for the second.

Going from VSDIDYVPLKSATAIT V1R (RSDIDYVPLKSATAIT) to VSDIDYVPLKSATAIT V1S (SSDIDYVPLKSATAIT), the “PSSM value of the substitution” value falls from 0.8177 to 0.005325.

Compared with VSDIDYVPLKSATAIT V1T (TSDIDYVPLKSATAIT), VSDIDYVPLKSATAIT V1V is lower in “PSSM value of the substitution” value: 0.009093 for the first, 0.0001148 for the second.

Going from VSDIDYVPLKSATAIT V1W (WSDIDYVPLKSATAIT) to VSDIDYVPLKSATAIT V1Y (YSDIDYVPLKSATAIT), the “PSSM value of the substitution” value falls from 0.1483 to 0.

VSDIDYVPLKSATAIT V7A (VSDIDYAPLKSATAIT) and VSDIDYVPLKSATAIT V7D (VSDIDYDPLKSATAIT) are the same in “PSSM value of the substitution” value: 0 for the first, 0 for the second.

First: VSDIDYVPLKSATAIT V7E (VSDIDYEPLKSATAIT)
Second: VSDIDYVPLKSATAIT V7F (VSDIDYFPLKSATAIT)
The “PSSM value of the substitution” value of the first is lower: 0.002945 for the first, 0.7071 for the second.

Going from VSDIDYVPLKSATAIT V7G (VSDIDYGPLKSATAIT) to VSDIDYVPLKSATAIT V7H (VSDIDYHPLKSATAIT), the “PSSM value of the substitution” value rises from 0 to 0.001087.

Going from VSDIDYVPLKSATAIT V7I (VSDIDYIPLKSATAIT) to VSDIDYVPLKSATAIT V7K (VSDIDYKPLKSATAIT), the “PSSM value of the substitution” value rises from 0 to 0.02629.

Going from VSDIDYVPLKSATAIT V7L (VSDIDYLPLKSATAIT) to VSDIDYVPLKSATAIT V7M (VSDIDYMPLKSATAIT), the “PSSM value of the substitution” value falls from 0.2591 to 0.001261.

VSDIDYVPLKSATAIT V7N (VSDIDYNPLKSATAIT) and VSDIDYVPLKSATAIT V7P (VSDIDYPPLKSATAIT) are the same in “PSSM value of the substitution” value: 0 for the first, 0 for the second.

First: VSDIDYVPLKSATAIT V7Q (VSDIDYQPLKSATAIT)
Second: VSDIDYVPLKSATAIT V7R (VSDIDYRPLKSATAIT)
The “PSSM value of the substitution” value of the first is higher: 0.0002611 for the first, 0 for the second.

VSDIDYVPLKSATAIT V7S (VSDIDYSPLKSATAIT) and VSDIDYVPLKSATAIT V7T (VSDIDYTPLKSATAIT) are the same in “PSSM value of the substitution” value: 0 for the first, 0 for the second.

Going from VSDIDYVPLKSATAIT V7V to VSDIDYVPLKSATAIT V7W (VSDIDYWPLKSATAIT), the “PSSM value of the substitution” value falls from 0.001069 to 0.0003888.

Compared with VSDIDYVPLKSATAIT V7Y (VSDIDYYPLKSATAIT), VSDIDYVPLKSATAIT Y6A (VSDIDAVPLKSATAIT) is lower in “PSSM value of the substitution” value: 0.0004595 for the first, 0 for the second.

VSDIDYVPLKSATAIT Y6D (VSDIDDVPLKSATAIT) and VSDIDYVPLKSATAIT Y6E (VSDIDEVPLKSATAIT) are the same in “PSSM value of the substitution” value: 0 for the first, 0 for the second.

VSDIDYVPLKSATAIT Y6F (VSDIDFVPLKSATAIT) and VSDIDYVPLKSATAIT Y6G (VSDIDGVPLKSATAIT) are the same in “PSSM value of the substitution” value: 0 for the first, 0 for the second.

VSDIDYVPLKSATAIT Y6H (VSDIDHVPLKSATAIT) and VSDIDYVPLKSATAIT Y6I (VSDIDIVPLKSATAIT) are the same in “PSSM value of the substitution” value: 0 for the first, 0 for the second.

VSDIDYVPLKSATAIT Y6K (VSDIDKVPLKSATAIT) and VSDIDYVPLKSATAIT Y6L (VSDIDLVPLKSATAIT) are the same in “PSSM value of the substitution” value: 0 for the first, 0 for the second.

VSDIDYVPLKSATAIT Y6M (VSDIDMVPLKSATAIT) and VSDIDYVPLKSATAIT Y6N (VSDIDNVPLKSATAIT) are the same in “PSSM value of the substitution” value: 0 for the first, 0 for the second.

VSDIDYVPLKSATAIT Y6P (VSDIDPVPLKSATAIT) and VSDIDYVPLKSATAIT Y6Q (VSDIDQVPLKSATAIT) are the same in “PSSM value of the substitution” value: 0 for the first, 0 for the second.

VSDIDYVPLKSATAIT Y6R (VSDIDRVPLKSATAIT) and VSDIDYVPLKSATAIT Y6S (VSDIDSVPLKSATAIT) are the same in “PSSM value of the substitution” value: 0 for the first, 0 for the second.

VSDIDYVPLKSATAIT Y6T (VSDIDTVPLKSATAIT) and VSDIDYVPLKSATAIT Y6V (VSDIDVVPLKSATAIT) are the same in “PSSM value of the substitution” value: 0 for the first, 0 for the second.

Compared with VSDIDYVPLKSATAIT Y6W (VSDIDWVPLKSATAIT), VSDIDYVPLKSATAIT Y6Y is higher in “PSSM value of the substitution” value: 0 for the first, 1 for the second.
